Laboratory results: ChEMBL document CHEMBL5661985, “In silico design of novel probes for the atypical opioid receptor MRGPRX2” (Nat Chem Biol, 2017)

Chains of the proteins cited; added tags and fusions are not shown. Lines headed by an entry give the natural chain unless they say otherwise; changes in a name come on top.
UniProt P41145: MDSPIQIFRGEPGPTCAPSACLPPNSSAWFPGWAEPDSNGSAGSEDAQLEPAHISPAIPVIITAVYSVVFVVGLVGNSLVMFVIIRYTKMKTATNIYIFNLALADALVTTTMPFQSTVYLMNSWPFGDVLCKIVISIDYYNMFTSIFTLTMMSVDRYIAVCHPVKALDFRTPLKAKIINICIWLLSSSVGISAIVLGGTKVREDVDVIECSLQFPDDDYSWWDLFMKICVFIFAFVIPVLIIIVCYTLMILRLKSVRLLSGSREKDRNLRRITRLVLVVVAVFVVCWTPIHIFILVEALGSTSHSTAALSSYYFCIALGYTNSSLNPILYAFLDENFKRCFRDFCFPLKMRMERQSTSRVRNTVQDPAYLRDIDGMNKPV

Molecular target: Kappa-type opioid receptor (Homo sapiens, UniProt P41145)
Experiment: Agonist activity at KOR (unknown origin) by Glo sensor assay
Format: functional

## CC(C)C[C@H](NC(=O)[C@H](Cc1ccccc1)NC(=O)CNC(=O)CNC(=O)[C@@H](N)Cc1ccc(O)cc1)C(=O)N[C@@H](CCCN=C(N)N)C(=O)N[C@@H](CCCN=C(N)N)C(=O)N[C@@H](CCC(N)=O)C(=O)N[C@@H](Cc1ccccc1)C(=O)N[C@@H](CCCCN)C(=O)N[C@H](C(=O)N[C@H](C(=O)N[C@H](C(=O)O)[C@@H](C)O)C(C)C)C(C)C [DYNORPHIN B]
  EC50: 0.13 nM
